# Source: PubChem BioAssay AID488965 (Broad Institute, 2010)
# Only a part is listed here, and it is no random draw. Some of these compounds have results that are not shown, active ones among them. Active and inactive are the calls of the source. Cut-off read from the data, not from the text of the source: active = inhibition above about 30% (passing the limit was not always enough); inconclusive = no clear call, values can overlap the other calls.
# Tested on: PvdQ acylase [Pseudomonas aeruginosa LESB58]
# Experiment: P. aeruginosa PvdQ acylase inhibitors, primary screen, biochemical, fluorescence, plate reader and imaging, single point (AID 488965);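 note: 0% = vehicle neutral wells and 100% = reference inhibitor wells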
# Settings: purified PvdQ acylase, at 10 µM, active compounds read high
row,SMILES,inhibition
1,CN(C)C1(CNC(=O)c2ccc(Br)cc2)CCCCC1,inactive: -3.96%
2,COc1cc(C(=O)NCC2(N(C)C)CCCCC2)c([N+](=O)[O-])cc1OC,inactive: -15%
3,COc1ccc(Cl)cc1C(=O)NCC1(N(C)C)CCCCC1,inactive: -10.6%
4,COc1cccc(C(=O)NCC2(N3CCCCC3)CCCCC2)c1,inactive: -7.16%
5,O=C(NCC1(N2CCCCC2)CCCCC1)c1cccc(Cl)c1,inactive: -3.77%
6,O=C(OC1CN2CCC1CC2)C(CO)(c1ccccc1)c1ccccc1 (stereo not given),inactive: 7.73%
7,COc1ccc(Br)c(C(=O)NCC2(N3CCCCC3)CCCCC2)c1,inactive: -5.05%
8,O=C(OCCN1CCCC1)C(O)(c1ccccc1)c1ccccc1,inactive: -6.49%
9,CC(C)Oc1ccc(C(=O)NCC2(N(C)C)CCCCC2)cc1,inactive: 4.81%
10,CN(C)c1cccc(C(=O)NCC2(N(C)C)CCCCC2)c1,inactive: -8.77%
11,O=C(NCC1(N2CCCCC2)CCCCC1)c1cc([N+](=O)[O-])ccc1Cl,inactive: -11.6%
12,CN1[C@@H]2CC[C@H]1CC(OC(=O)C(O)(c1ccccc1)c1ccccc1)C2 (stereo not given in full),inactive: -14.3%
13,COc1cc(SC)ccc1C(=O)NCC1(N(C)C)CCCCC1,inactive: 7.38%
14,CCN(CC)CC(C)C(C)OC(=O)C(O)(c1ccccc1)c1ccccc1 (stereo not given),inactive: -7.65%
15,CC(C)N1C(=O)CC2(CCN(CCOC(=O)C(O)(c3ccccc3)c3ccccc3)CC2)C1=O,inactive: -9.91%
16,Cc1ccc(C(=O)NCC2(N3CCCCC3)CCCCC2)cc1,inactive: -16.5%
17,CN(C)c1ccc(C(=O)NCC2(N(C)C)CCCCC2)cc1,inactive: 0.175%
18,CN(C)C1CCCC1OC(=O)C(O)(c1ccccc1)c1ccccc1 (stereo not given),inactive: -13.4%
19,Cc1ccccc1C(=O)NCC1(N2CCCCC2)CCCCC1,inactive: -6.49%
20,O=C(NCC1(N2CCCCC2)CCCCC1)c1cc(F)c(F)cc1Cl,inactive: -7.16%
21,C=CCN1CCN(CCOC(=O)C(O)(c2ccccc2)c2ccccc2)CC1,inactive: -21.1%
22,COc1ccc(C(=O)NCC2(N(C)C)CCCCC2)cc1,inactive: -13.2%
23,O=C(NCC1(N2CCCCC2)CCCCC1)c1cccc(Br)c1,inactive: -5.86%
24,CCN1CCCC(OC(=O)C2(O)c3ccccc3C=Cc3ccccc32)C1 (stereo not given),inactive: 1.12%
25,Cc1cc(C(=O)NCC2(N3CCCCC3)CCCCC2)ccc1[N+](=O)[O-],inactive: -12.1%
